Values of other authors in US20180258123A1, “Suppressors of Premature Termination Codons as Therapeutics and Methods for Their Use” (The University of British Columbia, priority 2015, published 2018).

Conditions: cited from earlier work

Substance: Gentamicin
- plasma concentrations that should be avoided (long-term treatment): above 10 μM
- plasma levels (typical): 2000 to 24000 nM
